In patent publication US20250188095A1, “DISUBSTITUTED OCTAHYDROPYRROLO[3,4-c]PYRROLYL METHYL KETONE DERIVATIVE AND USE THEREOF” (JIANGSU NHWA PHARMACEUTICAL CO., LTD, priority 2022, published 2025):
Values joined by “and” are separate entries in the source; they are usually repeats but may differ in a detail not shown here. Equal values may be shown once.

The chains behind the UniProt entries cited, without tags or fusion partners.
UniProt O43614, whole entry: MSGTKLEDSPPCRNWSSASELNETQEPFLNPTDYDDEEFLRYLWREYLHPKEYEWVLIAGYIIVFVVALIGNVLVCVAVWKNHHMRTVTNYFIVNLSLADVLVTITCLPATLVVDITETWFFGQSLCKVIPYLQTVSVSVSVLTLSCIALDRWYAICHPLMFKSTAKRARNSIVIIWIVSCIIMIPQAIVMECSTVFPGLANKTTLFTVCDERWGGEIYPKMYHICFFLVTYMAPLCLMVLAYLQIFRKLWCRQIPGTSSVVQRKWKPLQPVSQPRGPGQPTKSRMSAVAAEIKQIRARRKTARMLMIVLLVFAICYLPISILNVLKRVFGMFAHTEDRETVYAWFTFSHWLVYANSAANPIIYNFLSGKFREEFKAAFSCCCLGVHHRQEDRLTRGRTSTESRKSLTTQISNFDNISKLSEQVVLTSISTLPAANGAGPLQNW
UniProt O43613, whole entry: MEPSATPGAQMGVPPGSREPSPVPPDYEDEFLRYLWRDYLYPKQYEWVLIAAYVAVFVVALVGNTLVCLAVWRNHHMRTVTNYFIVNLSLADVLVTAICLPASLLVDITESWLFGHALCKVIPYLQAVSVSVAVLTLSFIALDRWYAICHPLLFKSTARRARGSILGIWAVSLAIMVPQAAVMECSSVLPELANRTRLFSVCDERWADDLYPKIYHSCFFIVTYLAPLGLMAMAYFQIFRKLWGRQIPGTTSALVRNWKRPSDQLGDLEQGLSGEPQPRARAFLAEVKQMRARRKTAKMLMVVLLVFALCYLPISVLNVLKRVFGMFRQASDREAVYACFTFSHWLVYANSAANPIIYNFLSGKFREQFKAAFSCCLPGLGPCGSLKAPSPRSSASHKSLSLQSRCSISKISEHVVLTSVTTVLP

How the values were obtained:
OX2 receptor = OX2 receptor (Homo sapiens (Human), UniProt O43614); experiment: In vitro activity test (Cisbio IP-one, CHO-K1-OX2 cells, antagonism of EC80 agonist); assay type: cell-based
Method: (§1) (1) Preparation of a reaction buffer (1×Stimulation buffer) required for the experiment: The 5×Stimulation buffer and ddH2O in the Cisbio IP-one kit were diluted in a ratio of 1:4 for later use.
(§2) (2) Compound preparation: The compound was diluted with DMSO to obtain a 5 mM stock solution, followed by a 3.16-fold dilution to obtain 10 gradients, and then the prepared compound was diluted with the Stimulation buffer to the corresponding concentrations (4×) for later use.
(§3) (3) Cell preparation: CHO-K1-OX1 and CHO-K1-OX2 cells on the culture dish were digested with trypsin, and the cells were washed off with culture medium and collected into 5 mL centrifuge tubes. The cells were centrifuged at 1000 rpm for 5 min, and the supernatant was discarded. […] The cells were resuspended in 1×Stimulation buffer and counted using a Countstar cell counter, and the cell density was adjusted to 1.71×10^6 cells/mL for later use. […]
(§4) (10) Experimental readings: The plate was read on Envision, readings from the 665 nm and 615 nm channels were taken, and the ratio of 665 nm/615 nm readings was calculated.
(§5) Based on the antagonistic effect values of the compound sample at different concentration test points, antagonistic curves of the compound sample against the orexin receptors were fitted using GraphPad Prism software, and the IC50 was calculated.

OX1 receptor = OX1 receptor (Homo sapiens (Human), UniProt O43613); experiment: In vitro activity test (Cisbio IP-one, CHO-K1-OX1 cells, antagonism of EC80 Orexin A); assay type: cell-based
Method: as §1, §2, §3, §4, §5

ICR mice [1] = experiment: Autonomous activities of mice; conditions: mouse, in vivo
Method: Male ICR mice aged 6-9 weeks were randomly divided into groups based on body weight balance, with 8 or 9 mice per group, and the groups were given blank vehicle and 10, 30, and 100 mg/kg of the test compound, respectively. The animals were placed in a test chamber immediately after administration, and the activity distances of the animals within 60 min were recorded and analyzed with Top Scan Version 3.0. […] Experimental data were expressed as mean±standard deviation (Mean±SD). One-way ANOVA analysis was performed using SPSS 21.0 statistical software, and pairwise comparisons were performed using Dunnett's test, with p<0.05 represented by *.

ICR mice [2] = experiment: Pentobarbital sodium synergistic sleep test; conditions: mouse, in vivo
Method: Male ICR mice aged 6-9 weeks were randomly divided into groups based on body weight balance, with 8 mice per group, and the groups were given blank vehicle and 3, 10, and 30 mg/kg of the test compound, respectively. After 5 min, pentobarbital sodium was intraperitoneally injected at 45 mg/kg. The moments when righting reflexes disappeared and the moments when righting reflexes reappeared in mice were recorded. Sleep latency=moment when righting reflex disappeared−moment when pentobarbital sodium was administered, and sleep duration=moment when righting reflex reappeared−moment when righting reflex disappeared. […] Experimental data were expressed as mean±standard deviation (Mean±SD). One-way ANOVA analysis was performed using SPSS 21.0 statistical software, and pairwise comparisons were performed using Dunnett's test, with p<0.05 represented by *.

For `Cc1cc(C)nc(N2CC3CN(C(=O)c4c(F)cccc4-n4nccn4)CC3C2)n1` (centres unmarked) [Seltorexant, reference compound], the IC50 (OX2 receptor) was < 100 nM, the IC50 (OX1 receptor) was 300 to 1000 nM and the “Movement distance (m)” value (ICR mice [1]) was 62.39 ± 23.31 m and 36.95 ± 9.75 m and 32.68 ± 13.49 m. The “Sleep duration” value (ICR mice [2]) was 60.41 ± 11.91 min and the “Sleep latency” value (ICR mice [2]) was 5.05 ± 2.67 min.
